{"source": "patent US20020160988A1", "about": "(priority 2001, published 2002)", "key": {"mice": {"tested_on": "mice", "assay": "In vivo toxicity (LD50) and Therapeutic Index in mice", "conditions": "for LD50 (mice i.p.): intraperitoneal, 24 hours"}, "[1]": {"target": "fetal bovine serum-AChE (FBS-AChE) (Bos taurus, UniProt P23795)", "assay": "Inhibition kinetics of fetal bovine serum AChE in vitro (Ellman)", "conditions": "for Ki: 25° C, dissociation constant"}, "[2]": {"target": "recombinant human acetylcholineesterase (rHuAChE) (Homo sapiens, UniProt P22303)", "assay": "Inhibition of recombinant human AChE in vitro (Ellman)", "conditions": "Hu-AChE; for Ki: 25° C, dissociation constant"}, "[3]": {"target": "human plasma butyrylcholinesterase (HuBChE) (Homo sapiens, UniProt P06276)", "assay": "Inhibition kinetics of human plasma BChE in vitro (Ellman)", "conditions": "Hu-BuChE; for Ki: 25° C, dissociation constant"}, "M1 muscarinic receptors": {"target": "M1 muscarinic receptors (Rattus norvegicus, UniProt P08482)", "assay": "Displacement of [^3H]pirenzepine from rat brain", "conditions": "L = 1.7 nM, KD = 13.9 nM"}, "M2 muscarinic receptors": {"target": "M2 muscarinic receptors (Rattus norvegicus, UniProt P10980)", "assay": "Displacement of [^3H]AFDX-346 from rat brain", "conditions": "[^3H]AFDX-346, L = 0.49 nM, KD = 5 nM"}}}
{"smiles": "COc1ccc2c(c1)c(CC(=O)OCCCCCCCC[n+]1cccc(OC(=O)N(C)C)c1)c(C)n2C(=O)c1ccc(Cl)cc1", "values": [{"measurement": "LD50 (mice i.p.)", "setting": "mice", "result": 35, "unit": "mg/kg"}, {"measurement": "K′", "setting": "[1]", "result": 1.4, "unit": "min⁻¹"}, {"measurement": "ki (bimolecular rate constant)", "setting": "[1]", "result": "8.6 × 10^4 M^−1m^−1"}, {"measurement": "ks × 10^3", "setting": "[1]", "result": 5.5, "unit": "minutes^−1"}, {"measurement": "Ki", "setting": "[1]", "result": 16000, "unit": "nM"}, {"measurement": "K′", "setting": "[2]", "result": 0.45, "unit": "min⁻¹"}, {"measurement": "ki (bimolecular rate constant)", "setting": "[2]", "result": "2.8 × 10^6 M^−1m^−1"}, {"measurement": "ks × 10^3", "setting": "[2]", "result": 45, "unit": "minutes^−1"}, {"measurement": "Ki", "setting": "[2]", "result": 160, "unit": "nM"}]}
{"smiles": "CC(C)Cc1ccc(C(C)C(=O)OCCCCCCCC[n+]2cccc(OC(=O)N(C)C)c2)cc1", "note": "(stereo not drawn)", "values": [{"measurement": "Therapeutic Index (TI = LD50/ED50)", "setting": "mice; ED50 = dose causing 50% ChE inhibition in blood", "result": 15.3}, {"measurement": "K′", "setting": "[3]", "result": 1.5, "unit": "min⁻¹"}, {"measurement": "ki (bimolecular rate constant)", "setting": "[3]", "result": "2.0 × 10^5 M^−1m^−1"}, {"measurement": "ks × 10^3", "setting": "[3]", "result": 3.6, "unit": "minutes^−1"}, {"measurement": "Ki", "setting": "[3]", "result": 7500, "unit": "nM"}, {"measurement": "IC50", "setting": "M1 muscarinic receptors", "result": 570, "unit": "nM"}, {"measurement": "Ki", "setting": "M1 muscarinic receptors", "result": 510, "unit": "nM"}, {"measurement": "K′", "setting": "[1]", "result": 1.1, "unit": "min⁻¹"}, {"measurement": "ki (bimolecular rate constant)", "setting": "[1]", "result": "4.8 × 10^5 M^−1m^−1"}, {"measurement": "ks × 10^3", "setting": "[1]", "result": 20, "unit": "minutes^−1"}, {"measurement": "Ki", "setting": "[1]", "result": 2200, "unit": "nM"}, {"measurement": "K′", "setting": "[2]", "result": 2.2, "unit": "min⁻¹"}, {"measurement": "ki (bimolecular rate constant)", "setting": "[2]", "result": "1.3 × 10^6 M^−1m^−1"}, {"measurement": "ks × 10^3", "setting": "[2]", "result": 22, "unit": "minutes^−1"}, {"measurement": "Ki", "setting": "[2]", "result": 1700, "unit": "nM"}, {"measurement": "IC50", "setting": "M2 muscarinic receptors", "result": 480, "unit": "nM"}, {"measurement": "Ki", "setting": "M2 muscarinic receptors", "result": 440, "unit": "nM"}]}
{"smiles": "CC(C)Cc1ccc([C@H](C)C(=O)OCCCCCCCC[n+]2cccc(OC(=O)N(C)C)c2)cc1", "values": [{"measurement": "K′", "setting": "[2]", "result": 0.32, "unit": "min⁻¹"}, {"measurement": "ki (bimolecular rate constant)", "setting": "[2]", "result": "2.7 × 10^5 M^−1m^−1"}, {"measurement": "ks × 10^3", "setting": "[2]", "result": 29, "unit": "minutes^−1"}]}
{"smiles": "CC(=O)Oc1ccccc1C(=O)OCCCCCCCC[n+]1cccc(OC(=O)N(C)C)c1", "values": [{"measurement": "LD50 (mice i.p.)", "setting": "mice", "result": 47.7, "unit": "mg/kg"}, {"measurement": "K′", "setting": "[3]", "result": 0.04, "unit": "min⁻¹"}, {"measurement": "ki (bimolecular rate constant)", "setting": "[3]", "result": "8.0 × 10^4 M^−1m^−1"}, {"measurement": "ks × 10^3", "setting": "[3]", "result": 0.7, "unit": "minutes^−1"}, {"measurement": "Ki", "setting": "[3]", "result": 490, "unit": "nM"}, {"measurement": "K′", "setting": "[1]", "result": 0.21, "unit": "min⁻¹"}, {"measurement": "ki (bimolecular rate constant)", "setting": "[1]", "result": "1.3 × 10^6 M^−1m^−1"}, {"measurement": "ks × 10^3", "setting": "[1]", "result": 21, "unit": "minutes^−1"}, {"measurement": "Ki", "setting": "[1]", "result": 160, "unit": "nM"}, {"measurement": "K′", "setting": "[2]", "result": 0.42, "unit": "min⁻¹"}, {"measurement": "ki (bimolecular rate constant)", "setting": "[2]", "result": "2.2 × 10^6 M^−1m^−1"}, {"measurement": "ks × 10^3", "setting": "[2]", "result": 12.6, "unit": "minutes^−1"}, {"measurement": "Ki", "setting": "[2]", "result": 190, "unit": "nM"}]}
